# Permeability data for macrocyclic peptides

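The data file gives no further conditions (lipid, pH, time, direction or concentration), and values from different papers need not be comparable. The list need not hold all peptides of the study. Peptides that the database sets to -10, its floor, are left out.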

PAMPA is the parallel artificial membrane permeability assay, which has no cells and reads passive diffusion. P is given in units of 10^-6 cm/s (from log10 values with two decimals); larger means faster passage.

The entry for CC(C)C[C@H]1NC(=O)[C@@H]2CCCN2C(=O)[C@@H](CC(C)C)NC(=O)[C@H](CC(C)C)N(C)C(=O)[C@@H](C)N(C)C(=O)[C@@H]2CCCN2C(=O)[C@H](Cc2ccccc2)NC1=O lists PAMPA 0.37 × 10^-6 cm/s. CC(C)C[C@H]1NC(=O)C[C@H](Cc2ccccc2)NC(=O)[C@H]2CCCN2C(=O)[C@H](Cc2ccccc2)NC(=O)[C@@H](CC(C)C)NC(=O)[C@H]2CCCN2C(=O)[C@@H](CC(C)C)NC1=O has PAMPA 1.4 × 10^-6 cm/s. CC(C)C[C@@H]1C(=O)N2CCC[C@H]2C(=O)N(C)[C@@H](CC(C)C)C(=O)N[C@@H](Cc2ccccc2)C(=O)N2CCC[C@@H]2C(=O)N(C)[C@@H](C)C(=O)N[C@H](CC(C)C)C(=O)N1C has PAMPA 15 × 10^-6 cm/s. For CC(C)C[C@@H]1C(=O)N[C@H](CC(C)C)C(=O)N2CCC[C@H]2C(=O)N(C)[C@H](CC(C)C)C(=O)N[C@@H](Cc2ccccc2)C(=O)N[C@@H](C)C(=O)N1C the data give PAMPA 6 × 10^-6 cm/s. For CC(C)C[C@@H]1NC(=O)[C@@H](C)N(C)C(=O)[C@H]2CCCN2C(=O)[C@H](Cc2ccccc2)NC(=O)[C@H](CC(C)C)N(C)C(=O)[C@@H]2CCCN2C(=O)[C@H](CC(C)C)N(C)C1=O the data give PAMPA 6.2 × 10^-6 cm/s. For CC(C)C[C@@H]1C(=O)N2CCC[C@@H]2C(=O)N(Cc2ccccc2)CC(=O)N[C@@H](Cc2ccccc2)C(=O)N[C@H](C)C(=O)N[C@H](CC(C)C)C(=O)N1C the data give PAMPA 0.43 × 10^-6 cm/s. CC(C)C[C@@H]1C(=O)N(C)[C@H](CC(C)C)C(=O)N2CCC[C@H]2C(=O)N(C)[C@H](CC(C)C)C(=O)N[C@@H](Cc2ccccc2)C(=O)N2CCC[C@H]2C(=O)N[C@@H](C)C(=O)N1C has PAMPA 6.3 × 10^-6 cm/s.

CCCN1CC(=O)N[C@@H](CC(C)C)C(=O)N(C)[C@H](CC(C)C)C(=O)N2CCC[C@H]2C(=O)N[C@@H](CC(C)C)C(=O)N[C@@H](Cc2ccccc2)C1=O is reported with PAMPA 6.3 × 10^-6 cm/s. Listed for CCCN1CC(=O)N(C)[C@H](CC(C)C)C(=O)N(Cc2ccccc2)CC(=O)N2CCC[C@@H]2C(=O)N(C)[C@@H](CC(C)C)C(=O)N[C@@H](Cc2ccccc2)C(=O)N2CCC[C@@H]2C1=O: PAMPA 2.1 × 10^-6 cm/s. CC(C)C[C@@H]1C(=O)N[C@@H](Cc2ccccc2)C(=O)N2CCC[C@H]2C(=O)N(C)[C@H](C)C(=O)N(Cc2ccccc2)CC(=O)N[C@H](CC(C)C)C(=O)N2CCC[C@H]2C(=O)N1C is reported with PAMPA 4 × 10^-6 cm/s. The entry for CC(C)C[C@@H]1NC(=O)[C@@H]2CCCN2C(=O)CN(Cc2ccccc2)C(=O)[C@@H](CC(C)C)NC(=O)[C@@H](C)N(C)C(=O)[C@@H]2CCCN2C(=O)[C@H](Cc2ccccc2)NC1=O lists PAMPA 0.36 × 10^-6 cm/s. Listed for CC(C)C[C@@H]1C(=O)N[C@H](CC(C)C)C(=O)N2CCC[C@H]2C(=O)N(C)[C@H](CC(C)C)C(=O)N[C@@H](Cc2ccccc2)C(=O)N2CCC[C@@H]2C(=O)N[C@@H](Cc2ccccc2)CC(=O)N1C: PAMPA 7.8 × 10^-6 cm/s. CC(C)C[C@@H]1NC(=O)[C@@H](CC(C)C)NC(=O)[C@H](C)NC(=O)[C@H]2CCCN2C(=O)[C@H](Cc2ccccc2)NC(=O)CN(Cc2ccccc2)C(=O)[C@@H]2CCCN2C1=O has PAMPA 0.21 × 10^-6 cm/s. Listed for CC(C)C[C@@H]1NC(=O)[C@H]2CCCN2C(=O)[C@H](CC(C)C)N(C)C(=O)[C@H](CC(C)C)N(C)C(=O)[C@@H](C)NC(=O)[C@@H]2CCCN2C(=O)[C@H](Cc2ccccc2)NC1=O: PAMPA 0.66 × 10^-6 cm/s.

Extract of 2 entries:

| SMILES | PAMPA (10^-6 cm/s) |
|---|---|
| CCCN1CC(=O)N(C)[C@H](CC(C)C)C(=O)N(Cc2ccccc2)CC(=O)N2CCC[C@@H]2C(=O)N(C)[C@@H](CC(C)C)C(=O)N[C@@H](Cc2ccccc2)C(=O)N2CCC[C@@H]2C1=O | 2.1 |
| CC(C)C[C@@H]1NC(=O)[C@@H](CC(C)C)NC(=O)[C@H](C)NC(=O)[C@H]2CCCN2C(=O)[C@H](Cc2ccccc2)NC(=O)CN(Cc2ccccc2)C(=O)[C@@H]2CCCN2C1=O | 0.21 |

Source: CycPeptMPDB (Li et al. 2023), which took these values from Townsend et al. 2020, doi:10.26434/chemrxiv.13335941.v1.